# scFv variants of Ab-14 (light chain) against a SARS-CoV-2 spike peptide

Source: Engelhart et al. 2022 (doi:10.1038/s41597-022-01779-4), MIT Lincoln Laboratory and A-Alpha Bio; data file from the FLAb repository.

Antigen: PDVDLGDISGINAS, a 14-residue peptide of the SARS-CoV-2 spike HR2 region.

Parent: Ab-14, a human scFv built as VH, the linker GGGGSGGGGSGGGGS, VL. Only the CDRs of the light chain vary.
VH: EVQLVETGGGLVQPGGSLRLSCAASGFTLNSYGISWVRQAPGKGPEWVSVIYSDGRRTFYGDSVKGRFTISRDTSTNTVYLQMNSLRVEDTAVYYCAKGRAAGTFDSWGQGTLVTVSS
VL: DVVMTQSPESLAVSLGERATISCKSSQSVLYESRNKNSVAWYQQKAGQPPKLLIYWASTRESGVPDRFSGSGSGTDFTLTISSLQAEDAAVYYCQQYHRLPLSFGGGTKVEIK

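The parent was found by panning a naive human phage display library on the peptide. Variants in AAYL50 differ from the parent at up to three CDR positions; double and triple changes were sampled at random. The scFvs were displayed on barcoded MATa yeast, the peptide on MATalpha yeast. The frequency of each diploid, read from paired DNA barcodes, reflects how well the two displayed proteins bind. Each replicate has its own calibration line, from reference interactions of the BCL2 family. Each pool was mated in three replicate cultures.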

Changes read parent residue, position, new residue, counted from the first residue of the VL shown.
Affinities are written as log10 Kd with Kd in nM; a lower number is a better binder.
The mean shown is taken over the replicates in which the pair was detected.
A pair that was not seen in any replicate is written "nd"; this usually means weak binding, but a binder can also be missed.
Three control strains display no target. For library AAYL50, 18% of the pairings with them gave a signal, with a median of 4.19 and one signal in twenty below 2.99, so weak values seen in few replicates may be background. The control count says in how many pairings with the empty strains this scFv gave a signal.
In this assay the parent's reference entry averaged 0.65; its copy inside this library read 1.68.

changes | mean log10 Kd (nM) | detected | control signals
E32D/R34P/S58E | 0.24 | 3 of 3 | 0 of 9
Q27H/Q95H/L100N | 3.44 | 3 of 3 | 3 of 9
K24N/E32T/N35C | 2.52 | 2 of 3 | 3 of 9
S28L/V29I | 3.57 | 2 of 3 | 0 of 9
K24P/V39N/H98D | 4.37 | 1 of 3 | 2 of 9
A57H/T59N/L100I | 2.74 | 1 of 3 | 0 of 9
S28D/Y31M/S38V | 4.40 | 1 of 3 | 2 of 9
R34H/H98A/R99D | 1.50 | 3 of 3 | 1 of 9
S28A/A40I | nd | 0 of 3 | 0 of 9
K24W/V29E/N35R | 4.06 | 1 of 3 | 4 of 9
Y31V/K36P/T59G | nd | 0 of 3 | 1 of 9
S28C/E61V/S103R | 2.28 | 3 of 3 | 3 of 9
S33I/A57W/P101I | nd | 0 of 3 | 0 of 9
V29H/Y31P/Q95D | 2.22 | 3 of 3 | 1 of 9
S38H/W56M/S58A | 1.14 | 3 of 3 | 2 of 9
L30V/H98W/P101F | 4.46 | 1 of 3 | 1 of 9
R34I/W56T | 1.05 | 3 of 3 | 0 of 9
S26M/L30K/E61W | 1.54 | 3 of 3 | 6 of 9
N35T/S38R/R60W | 4.51 | 1 of 3 | 2 of 9
S33K/A57Y | nd | 0 of 3 | 0 of 9
S26P/Q96H/L100W | 1.32 | 3 of 3 | 0 of 9
S25Q/E32Q/N35E | 2.05 | 3 of 3 | 1 of 9
K24L/Q27R/S62Y | 2.19 | 3 of 3 | 0 of 9

Continued, with the values leading:

mean log10 Kd (nM) | detected | control signals | changes
0.88 | 3 of 3 | 4 of 9 | K24E/Y31F/A40H
4.77 | 1 of 3 | 1 of 9 | A40N/Q95T
nd | 0 of 3 | 0 of 9 | S26H/S38K/Q95P
3.14 | 1 of 3 | 3 of 9 | S25I/N35F/A40F
1.85 | 3 of 3 | 0 of 9 | S28H/S103I
0.54 | 3 of 3 | 8 of 9 | S33D/W56R/S62Y
2.48 | 3 of 3 | 3 of 9 | K24W/S28N/T59I
nd | 0 of 3 | 0 of 9 | S33K/T59H/P101H
nd | 0 of 3 | 2 of 9 | A40W/T59P/R60L
1.44 | 3 of 3 | 4 of 9 | T59V/Q96H
4.95 | 3 of 3 | 3 of 9 | N35M/K36N/V39D
nd | 0 of 3 | 0 of 9 | V39C/A57V/R60F
4.29 | 1 of 3 | 0 of 9 | Y31K/R99S
3.97 | 3 of 3 | 2 of 9 | S28L/R34G/Q96K
4.38 | 1 of 3 | 1 of 9 | V39N/T59G
0.59 | 3 of 3 | 0 of 9 | Y97P/H98S
4.79 | 1 of 3 | 0 of 9 | S25C/Q27T/E61A
4.66 | 1 of 3 | 2 of 9 | V39Q/Q96D/Y97P
0.87 | 3 of 3 | 2 of 9 | K24A/S25A/S33G
nd | 0 of 3 | 1 of 9 | R34W/V39P/R99G
4.46 | 2 of 3 | 2 of 9 | N35A/N37A/V39F
5.22 | 1 of 3 | 1 of 9 | E61K/Y97G/S103D
1.36 | 3 of 3 | 2 of 9 | N35R/P101S/L102E
nd | 0 of 3 | 0 of 9 | V39Q/Q96T/L100F

The first 3 variants above that were never detected:

changes | mean log10 Kd (nM) | detected | control signals
S28A/A40I | nd | 0 of 3 | 0 of 9
Y31V/K36P/T59G | nd | 0 of 3 | 1 of 9
S33I/A57W/P101I | nd | 0 of 3 | 0 of 9